Relative growth data for one compound are collected here from the supplement of paper PMC9446081.

Structures are written as SMILES. This list holds what a sample rich in hits left over.
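Note: Wild-type cells incubated without shaking, value is the mean of two biological replicates.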

The subject of this test is Escherichia coli K-12 BW25113. Description: relative growth (OD600 normalised to plate interquartile mean) (fraction); higher = less growth inhibition, active = 0.2 or less. Particulars: 50 µM; LB; incubation time: overnight (16-24 h).
Regarding `CC[C@H](C)[C@H](NC(=O)[C@H](CCC(=O)O)NC(=O)[C@H](CCC(=O)O)NC(=O)[C@H](Cc1ccccc1)NC(=O)[C@H](CC(=O)O)NC(=O)CNC(=O)[C@H](CC(N)=O)NC(=O)CNC(=O)CNC(=O)CNC(=O)CNC(=O)[C@@H]1CCCN1C(=O)[C@H](CCCNC(=N)N)NC(=O)[C@@H]1CCCN1C(=O)[C@H](N)Cc1ccccc1)C(=O)N1CCC[C@H]1C(=O)N[C@@H](CCC(=O)O)C(=O)N[C@@H](CCC(=O)O)C(=O)N[C@@H](Cc1ccc(O)cc1)C(=O)N[C@@H](CC(C)C)C(=O)O`, the relative growth is inactive: 0.992.
